Measured values: PubChem BioAssay (NCI)
Where “and” joins values, the source holds several entries; their conditions need not be identical. Equal values may be shown once. This is a selection; strong and weak results do not stand in their true shares.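 Method: cells in 96-well plates; compound added at one concentration; 48 h incubation; percent growth measured; values under 10 scored active.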 Calls of active or inactive are those of the source.

Tests used:
Test in all cases: NCI-60 one-dose screen, 48 h (100 = growth as untreated, 0 = no growth, -100 = all killed)
Details in all cases: 10 µM
SK-MEL-2 melanoma = tested on: SK-MEL-2 melanoma
SN12C renal = tested on: SN12C renal
UO-31 renal = tested on: UO-31 renal
TK-10 renal = tested on: TK-10 renal
ACHN renal = tested on: ACHN renal
CAKI-1 renal = tested on: CAKI-1 renal
A498 renal = tested on: A498 renal
HL-60(TB) leukemia = tested on: HL-60(TB) leukemia
CCRF-CEM leukemia = tested on: CCRF-CEM leukemia
MOLT-4 leukemia = tested on: MOLT-4 leukemia
SR leukemia = tested on: SR leukemia
RPMI-8226 leukemia = tested on: RPMI-8226 leukemia
OVCAR-8 ovarian = tested on: OVCAR-8 ovarian
OVCAR-5 ovarian = tested on: OVCAR-5 ovarian
OVCAR-4 ovarian = tested on: OVCAR-4 ovarian
SK-OV-3 ovarian = tested on: SK-OV-3 ovarian
IGROV1 ovarian = tested on: IGROV1 ovarian
OVCAR-3 ovarian = tested on: OVCAR-3 ovarian
HS 578T breast = tested on: HS 578T breast

Measured: growth

BrCCN(CCBr)CCCN(CCBr)CCBr
inactive: SK-MEL-2 melanoma 105% | SN12C renal 93.6% | UO-31 renal 79.8% | TK-10 renal 111% | ACHN renal 106% | CAKI-1 renal 96.7% | A498 renal 88.3% | HL-60(TB) leukemia 108% | CCRF-CEM leukemia 94% | MOLT-4 leukemia 92.4% | SR leukemia 92.2% | RPMI-8226 leukemia 93.5% | OVCAR-8 ovarian 96.8% | OVCAR-5 ovarian 106% | OVCAR-4 ovarian 116% | SK-OV-3 ovarian 101% | IGROV1 ovarian 88.9% | OVCAR-3 ovarian 113% | HS 578T breast 103%

Fc1ccc(CCN(CCCl)CCCl)cc1
inactive: SK-MEL-2 melanoma 113% | SN12C renal 100% | UO-31 renal 94.7% | TK-10 renal 119% | ACHN renal 100% | CAKI-1 renal 89% | A498 renal 99.9% | HL-60(TB) leukemia 105% | MOLT-4 leukemia 95.1% | SR leukemia 96.6% | RPMI-8226 leukemia 104% | OVCAR-8 ovarian 103% | OVCAR-5 ovarian 99.4% | OVCAR-4 ovarian 112% | SK-OV-3 ovarian 107% | IGROV1 ovarian 94.6% | OVCAR-3 ovarian 117%

O=C1C(=O)N(CN(CCCl)CCCl)c2ccccc21
inactive: SK-MEL-2 melanoma 123% | SN12C renal 95.9% | UO-31 renal 78.1% | TK-10 renal 116% | ACHN renal 92.3% | CAKI-1 renal 94.3% | A498 renal 103% | HL-60(TB) leukemia 97.9% | MOLT-4 leukemia 96.3% | SR leukemia 87.4% | RPMI-8226 leukemia 98.2% | OVCAR-8 ovarian 98.7% | OVCAR-5 ovarian 108% | OVCAR-4 ovarian 106% | SK-OV-3 ovarian 98.8% | IGROV1 ovarian 99.4% | OVCAR-3 ovarian 105%

NC(Cc1cccc(N(CCCl)CCCl)c1)C(=O)O (stereo not given)
inactive: SK-MEL-2 melanoma 107% and 126% | SN12C renal 94% and 93.1% | UO-31 renal 91.8% and 88.1% | TK-10 renal 109% and 143% | ACHN renal 102% and 100% | CAKI-1 renal 68.7% and 62.2% | A498 renal 103% and 110% | HL-60(TB) leukemia 83.2% and 80.8% | MOLT-4 leukemia 79.2% and 73.1% | SR leukemia 40.3% and 44% | RPMI-8226 leukemia 93.4% and 91.7% | OVCAR-8 ovarian 89.8% and 93.1% | OVCAR-5 ovarian 107% and 111% | OVCAR-4 ovarian 103% and 110% | SK-OV-3 ovarian 95.8% and 103% | IGROV1 ovarian 92.5% and 84.2% | OVCAR-3 ovarian 102% and 97.3%

C1CCNCC1.O=C(O)C(O)c1ccc(N(CCCl)CCCl)cc1 (stereo not given)
inactive: SN12C renal 102% | UO-31 renal 90.4% | TK-10 renal 103% | ACHN renal 98.4% | CAKI-1 renal 103% | A498 renal 70.6% | HL-60(TB) leukemia 90.8% | CCRF-CEM leukemia 90.1% | MOLT-4 leukemia 81.9% | SR leukemia 75.7% | RPMI-8226 leukemia 99.4% | OVCAR-8 ovarian 109% | OVCAR-5 ovarian 102% | OVCAR-4 ovarian 115% | SK-OV-3 ovarian 95.7% | IGROV1 ovarian 91.1% | OVCAR-3 ovarian 106% | HS 578T breast 101%

Cc1cccc(C(=O)N(CCCl)CCCl)c1
inactive: SK-MEL-2 melanoma 98.2% | SN12C renal 100% | UO-31 renal 97% | TK-10 renal 118% | ACHN renal 93.4% | CAKI-1 renal 86.2% | A498 renal 112% | HL-60(TB) leukemia 96.7% | MOLT-4 leukemia 101% | SR leukemia 98.2% | RPMI-8226 leukemia 97.8% | OVCAR-8 ovarian 107% | OVCAR-5 ovarian 96.6% | OVCAR-4 ovarian 101% | SK-OV-3 ovarian 114% | IGROV1 ovarian 102% | OVCAR-3 ovarian 102%

O=Cc1ccc(N(CCCl)CCCl)cc1Cl
active: TK-10 renal -42.9% | A498 renal -89.1% | OVCAR-5 ovarian -7.77%
inactive: SK-MEL-2 melanoma 81.2% | SN12C renal 79.7% | UO-31 renal 75.8% | ACHN renal 95.6% | CAKI-1 renal 34.7% | HL-60(TB) leukemia 68.6% | MOLT-4 leukemia 71.2% | SR leukemia 67.5% | RPMI-8226 leukemia 39.7% | OVCAR-8 ovarian 86.1% | OVCAR-4 ovarian 18.9% | SK-OV-3 ovarian 64.9% | IGROV1 ovarian 12.2% | OVCAR-3 ovarian 26.9%

N#CC(C#N)=Cc1ccc2c(c1)OCO2
inactive: SK-MEL-2 melanoma 112% and 102% | SN12C renal 104% and 97.1% | UO-31 renal 89.5% and 97.8% | TK-10 renal 108% | ACHN renal 97% and 103% | CAKI-1 renal 96.8% and 91.6% | A498 renal 95.5% and 86.6% | HL-60(TB) leukemia 115% and 109% | CCRF-CEM leukemia 89.5% | MOLT-4 leukemia 97.3% and 97.2% | SR leukemia 89.3% and 90% | RPMI-8226 leukemia 101% and 121% | OVCAR-8 ovarian 97.7% and 100% | OVCAR-5 ovarian 99.7% and 100% | OVCAR-4 ovarian 107% and 100% | SK-OV-3 ovarian 105% and 94.1% | IGROV1 ovarian 96.6% and 110% | OVCAR-3 ovarian 111% and 108% | HS 578T breast 104% and 98.7%

Cc1ccc(C(=O)N(CCCl)CCCl)cc1
inactive: SK-MEL-2 melanoma 112% | SN12C renal 99.6% | UO-31 renal 86.1% | TK-10 renal 108% | ACHN renal 93.1% | CAKI-1 renal 82.4% | A498 renal 102% | HL-60(TB) leukemia 94.4% | MOLT-4 leukemia 100% | SR leukemia 109% | RPMI-8226 leukemia 103% | OVCAR-8 ovarian 99.1% | OVCAR-5 ovarian 97.3% | OVCAR-4 ovarian 97.2% | SK-OV-3 ovarian 114% | IGROV1 ovarian 99% | OVCAR-3 ovarian 115%

O/N=C/c1ccc(N(CCCl)CCCl)cc1
inactive: SK-MEL-2 melanoma 115% | SN12C renal 80.7% | UO-31 renal 86.7% | TK-10 renal 105% | ACHN renal 91% | CAKI-1 renal 38.5% | A498 renal 106% | HL-60(TB) leukemia 57.3% | CCRF-CEM leukemia 75% | MOLT-4 leukemia 63.3% | SR leukemia 43.7% | RPMI-8226 leukemia 91% | OVCAR-8 ovarian 83.6% | OVCAR-5 ovarian 103% | OVCAR-4 ovarian 92.3% | SK-OV-3 ovarian 104% | IGROV1 ovarian 73.4% | OVCAR-3 ovarian 116% | HS 578T breast 97.4%

O=CC(O)C(O)C(O)C(O)CN(CCCl)CCCl (stereo not given)
inactive: SN12C renal 97.5% | UO-31 renal 84.2% | TK-10 renal 104% | ACHN renal 94.5% | CAKI-1 renal 95% | A498 renal 92.4% | HL-60(TB) leukemia 111% | CCRF-CEM leukemia 92.1% | MOLT-4 leukemia 85.4% | SR leukemia 100% | RPMI-8226 leukemia 99.9% | OVCAR-8 ovarian 101% | OVCAR-5 ovarian 97.1% | OVCAR-4 ovarian 96.5% | SK-OV-3 ovarian 100% | IGROV1 ovarian 101% | OVCAR-3 ovarian 102% | HS 578T breast 106%
